The source of these data is patent US7618664B2, “Method for preparing calcium gluconate” (Cooperatieve Verkoop-en Productievereniging Van …, priority 2001, dated 2009).

For data set [1] the following is noted: pH 5; cited from earlier work.
Data set [2] in a line: Solubility of calcium gluconate prepared enzymatically in the presence of calcium lactate.

Some results are limits rather than exact numbers.

For the substance calcium gluconate, the “solubility under the conditions required for optimal enzymatic conversion” value in data set [1] was 40 mg/mL. Moreover, the “total calcium content of clear solutions without crystals” value in data set [2] is > 46 g total calcium/kg solution.
